Experiment [1] has as its target T1, FK506-binding protein (FKBP) (Homo sapiens, UniProt P62942). Description: Fluorescent correlation analysis (FCS) binding of second (Cy5-labeled) compounds to FKBP which had interacted with Compound 2. The settings on record: for Kd: read-out: Kd value (dissociation constant). How it is done: Then, a mixture solution of a Compound 2 and a target protein FKBP was prepared. In the mixture solution, the Compound 2 interacts with FKBP and, thereby, a Compound 2 which is bound to FKBP and a Compound 2 which is in a free state are present in admixture with each other in the equilibrium state. Using such the mixture solution, a compound which binds to FKBP which had interacted with Compound 2, in a vicinity of the Compound 2, was further screened among a group of a few kinds of compounds (also referred to as second compound library).
The second compound library was labeled with Cy5 (Amersham) as a fluorescent substance (hereinafter, such a fluorescence-labeled compound is referred to as second fluorescence-labeled compound). In a fluorescent correlation analysis apparatus, helium-neon laser 633 nm was irradiated for measurement. The second fluorescence-labeled compound uses a different excitation wavelength from that of the aforementioned first fluorescence-labeled compound, upon detection. For this reason, when a wavelength exciting only a second fluorescence-labeled compound is irradiated, only a sample with which two kinds of fluorescence-labeled compounds interacted can be screened.
A translational diffusion time measured by a fluorescent correlation analysis apparatus is about 60μ seconds in (i) the second fluorescence-labeled compound, and about 240μ seconds in (ii) a target protein (FKBP) with which both of the first fluorescence-labeled compound and the second fluorescence-labeled compound interacted.
Thereby, using about 240μ seconds of a translational diffusion time of the complex obtained by interaction with two kinds of compounds, a concentration of each molecular species (i.e., a concentration of a fluorescence-labeled compound in a free state and a concentration of the complex obtained by interaction) was calculated. As a result, a Kd value (dissociation constant) which is to be an index of affinity was obtained.

The chains behind the UniProt entries cited, without tags or fusion partners. Residues count along the entry.
UniProt P62942, 2-108 limits assumed: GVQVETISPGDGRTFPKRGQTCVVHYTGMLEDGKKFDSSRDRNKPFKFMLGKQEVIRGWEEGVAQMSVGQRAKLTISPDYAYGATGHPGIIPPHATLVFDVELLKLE

The target of experiment [2] is T1, FK506-binding protein (FKBP). As to the kind of experiment: Fluorescent correlation analysis (FCS) binding of fluorescence-labeled compounds to FKBP. The source says:
As a target protein, FKBP was used, and a concentration thereof was adjusted to 10 nmol/L in a physiological buffer. A library of a plurality of compounds (also referred to as first compound library) was labeled with a fluorescent substance, 5-TAMRA (5-Carboxytetramethylrhodamine), and was adjusted to three concentrations (1, 10, and 100 nmol/L) (hereinafter, such fluorescence-labeled compound is referred to as first fluorescence-labeled compound). The target protein FKBP and the first fluorescence-labeled compound having any of three concentrations (1, 10, and 100 nmol/L) were mixed at the same amount of 50 μL. The mixture was incubated at room temperature for 15 to 30 minutes, placed in a 96-well glass bottom microplate, and measured with a fluorescent correlation analysis apparatus.
As laser, helium-neon laser 543 nm was used. Measurement was performed consecutively five times at a measuring time of 10 seconds per sample, and an average was adopted as data. As a measuring parameter, a translational diffusion time and a molecular concentration were calculated, and affinity of each compound was studied by a Kd value (dissociation constant).
(i) a first fluorescence-labeled compound alone, and (ii) a target protein (FKBP) which had interacted with the compound were discriminated by a translational diffusion time, and thereby discriminated as two kinds of molecular species. […]

Take `O=C(Nc1ccccc1O)c1ccc(O)cc1`: in experiment [1] (Cy5-labeled compound, in mixture solution of Compound 2 and FKBP, laser 633 nm), the Kd (usually the constant that tells how readily two partners part at equilibrium) turned out to be 800 µM.
Take `COC(=O)C1CCCCN1C(=O)C(=O)c1cc(OC)c(OC)c(OC)c1` (centres unmarked): the dissociation constant Kd in experiment [2] (read-out: Kd value (dissociation constant), 5-TAMRA-labeled compound, FKBP 10 nmol/L, room temperature 15 to 30 minutes, laser 543 nm) turned out to be 2 µM.
For `COc1cc(C(=O)C(=O)N2CCCCC2C(=O)OCCCOc2ccc(C(=O)Nc3ccc(O)cc3)cc2)cc(OC)c1OC` (centres unmarked), the “affinity for FKBP among compounds 10 to 14” value in experiment [2] (comparison among five linked compounds) is listed as “highest affinity for FKBP”.
Turning to `O=C(Nc1ccc(O)cc1)c1ccc(O)cc1`, the “stability of binding to target protein among Compounds 3 to 9” value in experiment [1] (comparison of Kd values of Compounds 3 to 9) is “most stably binds to a target protein”. In experiment [1] (side-chain-altered analogue of Compound 3, second binding site), the Kd was found to be 100 µM.

The record behind these values is US20060088887A1.
